Measurements taken from ChEMBL document CHEMBL1134685, “Antitumor Agents. 211. Fluorinated 2-phenyl-4-quinolone derivatives as antimitotic antitumor agents” (J Med Chem, 2001).

Protein sequences, listed by entry. Tags and fused reporters are not part of them.
UniProt P02550, whole entry, looked up: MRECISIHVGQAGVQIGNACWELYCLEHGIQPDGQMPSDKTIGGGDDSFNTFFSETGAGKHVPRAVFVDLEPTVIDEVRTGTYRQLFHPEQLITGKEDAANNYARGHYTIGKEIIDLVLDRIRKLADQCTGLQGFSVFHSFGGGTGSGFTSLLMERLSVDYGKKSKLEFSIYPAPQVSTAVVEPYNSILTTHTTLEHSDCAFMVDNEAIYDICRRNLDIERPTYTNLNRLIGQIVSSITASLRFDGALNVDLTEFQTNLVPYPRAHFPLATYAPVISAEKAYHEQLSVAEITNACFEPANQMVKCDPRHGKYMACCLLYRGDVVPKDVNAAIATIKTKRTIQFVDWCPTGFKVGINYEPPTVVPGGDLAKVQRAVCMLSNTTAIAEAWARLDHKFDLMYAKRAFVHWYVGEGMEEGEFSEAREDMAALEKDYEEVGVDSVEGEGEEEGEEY

Target: Tubulin alpha chain (Sus scrofa, UniProt P02550)
Assay: Inhibition of tubulin polymerization. (ITP)

IC50: 24 µM
SMILES: Fc1ccccc1-c1cc(S)c2cc3c(cc2n1)OCO3
